# The list shows a part of the results, in another mix than the full data. Activity calls are given as the source filed them.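 How the source made its calls: active means compounds whose thallium flux B-score, printed positive for inhibition, exceeds three library SD while starting fluorescence stays within three; inactive means the rest.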
# Chains of the proteins cited; added tags and fusions are not shown.
# UniProt P51787, whole entry: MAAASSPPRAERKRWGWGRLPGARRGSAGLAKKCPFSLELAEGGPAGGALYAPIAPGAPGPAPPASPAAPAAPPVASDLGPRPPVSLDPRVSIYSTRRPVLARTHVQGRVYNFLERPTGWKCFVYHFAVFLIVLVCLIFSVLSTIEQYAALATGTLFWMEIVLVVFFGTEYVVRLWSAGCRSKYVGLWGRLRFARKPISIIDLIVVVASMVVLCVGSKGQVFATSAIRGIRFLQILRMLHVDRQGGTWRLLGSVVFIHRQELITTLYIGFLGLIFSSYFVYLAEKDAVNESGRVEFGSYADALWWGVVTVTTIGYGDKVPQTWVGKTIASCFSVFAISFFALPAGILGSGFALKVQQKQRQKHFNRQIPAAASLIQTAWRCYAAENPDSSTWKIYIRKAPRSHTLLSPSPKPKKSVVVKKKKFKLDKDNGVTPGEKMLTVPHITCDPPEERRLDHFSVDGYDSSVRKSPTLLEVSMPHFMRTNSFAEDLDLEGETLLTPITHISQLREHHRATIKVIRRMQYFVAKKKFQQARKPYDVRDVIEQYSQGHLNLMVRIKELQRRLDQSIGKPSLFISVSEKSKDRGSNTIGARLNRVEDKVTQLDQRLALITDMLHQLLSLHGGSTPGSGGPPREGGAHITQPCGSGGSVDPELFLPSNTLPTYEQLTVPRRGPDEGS
# Target: Potassium voltage-gated channel subfamily KQT member 1 (Homo sapiens) (UniProt P51787)
# Test: inhibitors of human KCNQ1 channel, primary screen, cell-based, thallium flux, high-throughput (AID 2642);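 further: channel opened by potassium depolarization with thallium stimulus after 20 min compound exposure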
# Conditions: CHO-K1 KCNQ1, FluxOR thallium flux fluorescence; at 10 µM
row,SMILES,outcome
1,COc1ccc(NC2CCN(C(=O)OC(C)(C)C)CC2)cc1,inactive
2,CN1CCN(CCOC(=O)C(O)(c2ccccc2)c2ccccc2)CC1,inactive
3,O=C(NCC1(N2CCOCC2)CCCCC1)c1cc(=O)[nH]c2ccccc12,inactive
4,COc1cc(C(=O)NCC2(N3CCCCC3)CCCCC2)ccc1OC(F)F,inactive
5,O=C(NCC1(N2CCCCC2)CCCCC1)c1cccc(C(F)(F)F)c1,inactive
6,O=C(NCC1(N2CCCCC2)CCCCC1)c1cccc([N+](=O)[O-])c1,inactive
7,CCN1CCC(Nc2ccc(Cl)cc2)CC1,inactive
8,N#CC1(Nc2ccccc2)CCN(CCc2ccccc2)CC1,inactive
9,O=C(NCC1(N2CCCCC2)CCCCC1)c1ccc(OC(F)F)cc1,inactive
10,CCCOc1ccc(C(=O)NCC2(N(C)C)CCCCC2)cc1OC,inactive
11,CN1CCC(Nc2cccc(F)c2)CC1,inactive
12,COc1cc(OC)c(C(=O)NCC2(N(C)C)CCCCC2)cc1OC,inactive
13,COc1ccc(CN(CCCl)CCCl)cc1Cl,inactive
14,CN(C)c1cccc(C(=O)NCC2(N3CCCCC3)CCCCC2)c1,inactive
15,CC(C)c1ccc(NC2CCN(C(=O)OC(C)(C)C)CC2)cc1,inactive
16,CCOC(=O)N1CCC(Nc2ccc(OC)cc2)CC1,inactive
17,N#CC1(Nc2ccccc2)CCN(Cc2ccccc2)CC1,inactive
18,O=C(OC1CN2CCC1CC2)C1c2ccccc2Oc2ccccc21 (centres undefined),inactive
19,O=C(NCC1(N2CCOCC2)CCCCC1)c1cc2ccccc2o1,inactive
20,O=C(NCC1(N2CCCCC2)CCCCC1)c1ccc(Cl)nc1,inactive

row,SMILES,outcome
1,Cc1cc(C)cc(N(C(=O)c2ccccc2)C2CCN(C(=O)OC(C)(C)C)CC2)c1,inactive
2,CSc1ccccc1C(=O)NCC1(N2CCCCC2)CCCCC1,inactive
3,O=C(NCC1(N2CCCCC2)CCCCC1)c1ccc(=O)[nH]c1,inactive
4,O=C(NCC1(N2CCCCC2)CCCCC1)c1cccs1,inactive
5,COc1ccc(C(=O)NCC2(N3CCCCC3)CCCCC2)cc1,inactive
6,CC(C)(C)OC(=O)N1CCC(N(C(=O)c2ccccc2)c2ccc(F)cc2)CC1,inactive
7,COc1ccc(C(=O)NCC2(N3CCCCC3)CCCCC2)c(OC)c1OC,inactive
8,CCOC(=O)N1CCC(Nc2cccc(C)c2)CC1,inactive
9,COc1cc(C(=O)NCC2(N(C)C)CCCCC2)ccc1OC(F)F,inactive
10,Cc1ccc(OCC(C)C)c(CN(CCCl)CCCl)c1,inactive
11,O=C(NCC1(N2CCCCC2)CCCCC1)c1ccc(F)cc1,inactive
12,CCOC(=O)N1CCC(Nc2ccc(F)cc2)CC1,inactive
13,COc1ccc(NC2CCN(CCc3ccccc3)CC2)c(OC)c1,inactive
14,CCOc1ccc(C)cc1CN(CCCl)CCCl,inactive
15,CN(C)c1ccc(C(=O)NCC2(N3CCCCC3)CCCCC2)cc1,inactive
16,CCN1CCC(Nc2cccc(F)c2)CC1,inactive
17,Cc1ccc(C(=O)NCC2(N3CCCCC3)CCCCC2)o1,inactive
18,Fc1ccccc1NC1CCN(Cc2ccccc2)CC1,inactive
19,COc1cc(OC)cc(C(=O)NCC2(N3CCCCC3)CCCCC2)c1,inactive
20,CCCOc1ccc(C)cc1CN(CCCl)CCCl,inactive

row,SMILES,outcome
1,CN1CCC(Nc2ccc(Cl)cc2)CC1,inactive
2,CCC(CO)(C(=O)OC1CN2CCC1CC2)c1ccccc1 (centres undefined),inactive
3,COc1cccc(C(=O)N(c2cc(C)cc(C)c2)C2CCN(C(=O)OC(C)(C)C)CC2)c1,inactive
4,COc1cc(OC)cc(C(=O)NCC2(N3CCOCC3)CCCCC2)c1,inactive
5,CCCOc1ccc(C(=O)NCC2(N(C)C)CCCCC2)cc1,inactive
6,CC(C)(C)OC(=O)N1CCC(Nc2ccccc2)CC1,inactive
7,O=C(O)C1(Nc2ccccc2)CCN(Cc2ccccc2)CC1,inactive
8,CCOc1ncccc1C(=O)NCC1(N2CCOCC2)CCCCC1,inactive
9,CN1CCC(Nc2ccc(F)c(Cl)c2)CC1,inactive
10,CCc1cc(C(=O)NCC2(N3CCCCC3)CCCCC2)sc1C,inactive
11,O=C(OC1CN2CCC1CC2)C1c2ccccc2C=Cc2ccccc21 (centres undefined),inactive
12,N/C(=N\O)c1c(N)no[n+]1[O-],inactive
13,CCOC(=O)N1CCC(Nc2ccc(C)cc2)CC1,inactive
14,COc1ccc(C(=O)NCC2(N3CCOCC3)CCCCC2)cc1OC,inactive
15,c1ccc(CN2CCC(Nc3ccccc3)CC2)cc1,inactive
16,CCCN1CCC(Nc2cc(OC)cc(OC)c2)CC1,inactive
17,CN(C)C1(CNC(=O)c2cccc(C#N)c2)CCCCC1,inactive
18,CC(C)(C)OC(=O)N1CCC(N(C(=O)c2ccccc2)c2ccc(Cl)cc2)CC1,inactive
19,N#Cc1ccc(C(=O)NCC2(N3CCCCC3)CCCCC2)cc1,inactive

# Reference: PubChem BioAssay AID2642 (Johns Hopkins Ion Channel Center, 2010)
